{"sequences": {"note": "Chains of the proteins cited; added tags and fusions are not shown.", "UniProt Q9Y2R2, whole entry, looked up": "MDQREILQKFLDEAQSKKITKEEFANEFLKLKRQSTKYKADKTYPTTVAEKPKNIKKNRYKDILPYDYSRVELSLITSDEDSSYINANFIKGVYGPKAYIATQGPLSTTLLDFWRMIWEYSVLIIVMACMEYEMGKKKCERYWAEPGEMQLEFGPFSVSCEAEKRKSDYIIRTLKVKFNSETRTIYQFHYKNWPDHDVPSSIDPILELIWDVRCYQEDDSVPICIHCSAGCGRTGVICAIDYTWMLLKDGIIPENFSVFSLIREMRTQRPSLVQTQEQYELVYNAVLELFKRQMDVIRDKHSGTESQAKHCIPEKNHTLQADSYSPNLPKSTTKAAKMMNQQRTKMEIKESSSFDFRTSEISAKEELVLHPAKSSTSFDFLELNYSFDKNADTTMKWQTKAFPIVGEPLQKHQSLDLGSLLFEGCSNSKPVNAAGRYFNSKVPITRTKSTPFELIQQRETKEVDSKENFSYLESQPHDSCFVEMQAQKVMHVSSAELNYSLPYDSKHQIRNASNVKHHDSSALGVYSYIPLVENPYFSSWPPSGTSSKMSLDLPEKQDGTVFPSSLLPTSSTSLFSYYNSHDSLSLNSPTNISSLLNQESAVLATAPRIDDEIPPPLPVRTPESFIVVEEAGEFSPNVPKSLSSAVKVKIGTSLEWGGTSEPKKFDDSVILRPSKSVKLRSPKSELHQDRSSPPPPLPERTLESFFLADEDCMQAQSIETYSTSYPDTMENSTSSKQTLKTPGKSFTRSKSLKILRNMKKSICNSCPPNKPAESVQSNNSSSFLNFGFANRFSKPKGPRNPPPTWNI"}, "source": "PubChem BioAssay AID1779", "about": "(Sanford-Burnham Center for Chemical Genomics, 2009)", "note": "“And” between values parts separate entries of the source, which are not always exact repeats. Equal entries are not always repeated. This is a selection; strong and weak results do not stand in their true shares. The source made the active and inactive calls. Cut-off read from the data, not from the text of the source: active = inhibition above about 50%; inactive = the rest."}
{"molecular_target": "Tyrosine-protein phosphatase non-receptor type 22 (Homo sapiens) (UniProt Q9Y2R2)", "test": "inhibitors of LYP phosphatase, biochemical, fluorescence intensity, uHTS (AID 1779);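 note: plate controls were vehicle with enzyme for no effect and no enzyme for full effect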", "conditions": "recombinant LYP phosphatase, at 11.5 µM, active compounds read high"}
{"compound": "CCN(N=Nc1nonc1N)c1nonc1N", "inhibition": "inactive: -7.4%"}
{"compound": "Nc1cccc2ccc([As](=O)(O)O)cc12", "inhibition": "inactive: -2.5%"}
{"compound": "O=[N+]([O-])c1cc([N+](=O)[O-])c(CCN2CCOCC2)c([N+](=O)[O-])c1", "inhibition": "inactive: -1%"}
{"compound": "Cc1ccc(NP(=O)(Oc2ccccc2F)Oc2ccccc2F)nc1", "inhibition": "inactive: -8.9%"}
{"compound": "Cc1cc(SC(NC(=O)c2ccc(F)cc2)C(Cl)(Cl)Cl)ncn1", "note": "(stereo not drawn)", "inhibition": "inactive: -5.2%"}
{"compound": "CCOP(=O)(Nc1ccccc1)OCC", "inhibition": "inactive: -12.7% and inactive: 0.9%"}
{"compound": "CC(=O)Nc1ccc([As](=O)(O)O)cc1", "inhibition": "inactive: -6.4%"}
{"compound": "O=C(O)c1ccccc1[As](=O)(O)O", "inhibition": "inactive: -3.8%"}
{"compound": "O=P(Nc1nc2ccc(Cl)cc2s1)(c1ccccc1)c1ccccc1", "inhibition": "inactive: -1.8%"}
{"compound": "Nc1cc(N)c2nonc2c1[N+](=O)[O-]", "inhibition": "inactive: 0.3%"}
{"compound": "CC(C)CC(=O)NC(Sc1ccc(Cl)cc1)C(Cl)(Cl)Cl", "note": "(stereo not drawn)", "inhibition": "inactive: 0.4%"}
{"compound": "O=C(NC(Sc1ccncn1)C(Cl)(Cl)Cl)c1ccccc1", "note": "(stereo not drawn)", "inhibition": "inactive: -1.4%"}
{"compound": "Cc1c2non([O-])c-2c(C)[n+](=O)[n+]1[O-]", "inhibition": "inactive: 19.7%"}
{"compound": "Oc1ccccc1CNc1ccccn1", "inhibition": "inactive: -11.5%"}
{"compound": "Cc1ccc(OP(=O)(Nc2nccs2)Oc2ccc(C)cc2)cc1", "inhibition": "inactive: -3.6%"}
{"compound": "COc1ccccc1OP(=O)(Nc1ccc(C)cn1)Oc1ccccc1OC", "inhibition": "inactive: -2.2%"}
{"compound": "CN1CCCC(OC(=O)C(c2ccccc2)c2ccccc2)C1", "note": "(stereo not drawn)", "inhibition": "inactive: -2.4%"}
{"compound": "Clc1ccc(Cl)c(NC2=NCC(CBr)S2)c1", "note": "(stereo not drawn)", "inhibition": "inactive: -8.7%"}
{"compound": "NC(=O)c1cc([N+](=O)[O-])cc([N+](=O)[O-])c1N", "inhibition": "inactive: -3.9%"}
{"compound": "Cc1ccc(N/C(=N/P(=O)(N2CCOCC2)N2CCOCC2)N2CCOCC2)cc1", "inhibition": "inactive: -5.4%"}
{"compound": "CN(C)C(=O)OCCc1n(C)cc[n+]1C", "inhibition": "inactive: 2%"}
{"compound": "CC(C)=N/N=C(\\N)N[N+](=O)[O-]", "inhibition": "inactive: -6.6%"}
{"compound": "CC1CCN(C(=O)Oc2c(Cl)cc(Cl)c3cccnc23)CC1", "inhibition": "inactive: -6.6%"}
{"compound": "C[N+]1=C2C=CC=CC=C2SC12C([N+](=O)[O-])=CC([N+](=O)[O-])=C[C-]2[N+](=O)[O-]", "note": "(stereo not drawn)", "inhibition": "inactive: 3.6%"}
{"compound": "Nc1ccc([As](=O)(O)c2ccc(N)cc2)cc1", "inhibition": "inactive: -6.8%"}
{"compound": "CCN(/C(=N/P(=O)(N1CCOCC1)N1CCOCC1)N1CCOCC1)c1ccc(OC)cc1", "inhibition": "inactive: 2.4%"}
{"compound": "CC(=O)N1C2C3N(C(C)=O)C1C1N(C(C)=O)C(C(N1C(C)=O)N3C(C)=O)N2C(C)=O", "inhibition": "inactive: -6.6%"}
{"compound": "O=[N+]([O-])c1cccc2n[nH]nc12", "inhibition": "inactive: 2.7%"}
